# From patent US20210128511A1, “PRODRUG COMPOSITIONS AND METHODS OF TREATMENT” (AQUESTIVE THERAPEUTICS, INC., priority 2019, published 2021)
# Assays:
# [1] = Intramuscular study in minipig for prodrugs, epinephrine pharmacokinetic profile; type: in vivo, male Yucatan miniature swine; conditions: IM 2 mg/animal, up to 4 hrs
# Experimental: Yucatan minipigs (n=4 males per group) were weighed and weights were recorded. The morning of the study, the vascular access port (VAP) of each animal was checked for proper functioning. Minipigs with viable VAP were removed from the home cage and placed in a holding sling. The animals were fasted overnight prior to dose administration and for the duration of PK blood collections.
# All the formulations were prepared fresh on the day of dosing and maintained on wet ice until dosing. The dose was injected in the rear hind limb. Prior to administering, the plunger of the syringe was aspirated and observed for any blood that may flow into the syringe. If no blood was observed, it was verified that the needle was in proper placement, and the test articles were administered.
# At each specified time-point, 6 mL of whole blood was collected into blood collection tubes containing K2EDTA as the anticoagulant and sodium metabisulfite as stabilizer. Sodium metabisulfite was at a concentration of 8.9 mM, pH 3 (60 μL/6 mL of whole blood of the 890 mM stock solution). SigmaFast (600 μL of SigmaFast 1× solution to 6 mL of whole blood) was added immediately to the tubes as the enzyme arresting agent. […]
# The dose was injected in the rear hind limb. […] All blood samples were centrifuged and the resulting plasma was analyzed for epinephrine using LC-MS/MS method.
# [2] = Stability in sodium metabisulfite; type: physicochemical
# Text: A prodrug design can provide an alternative for the delivery of epinephrine, and indeed, for other active pharmaceutical ingredients. A prodrug can present improved hydrophobicity, better permeation, dose reduction, and enhanced speed of absorption. It can also provide alternative compositions with unique stability profiles. […] A prodrug that is not absorbed in the stomach can also avoid, minimize or eliminate the side effect of epigastric pain. Moreover, a prodrug can result in reduced adrenergic receptor binding, resulting in reduced variability of vasoconstriction and more stability. An expected disadvantage for the epinephrine prodrug approach is that it often requires conversion in the blood, can cause delay in epinephrine exposure as a function of its conversion rate, and since the molecular weight is often higher than that of the active pharmaceutical ingredient, it can also require a higher drug loading (e.g. if the prodrug is twice the molecular weight of the active pharmaceutical ingredient, it can require twice the drug loading).
# [3] = IM and SC administration of L-Dipivefrin compared to Epipen, PK; type: in vivo, male Yucatan miniature swine
# Experimental: Yucatan minipigs were weighed and in the morning of the study, the vascular access port (VAP) of each animal was checked for proper functioning. Minipigs with viable VAP were removed from the home cage and placed in a holding sling.
# At each specified time-point, 6 mL of whole blood was collected into blood collection tubes containing anticoagulant and stabilizer. Protease inhibitor cocktail was added and the tubes were inverted several times for mixing.
substance,measurement,setting,value
Dipivefrin [L-Dipivefrin],sufficient plasma levels,[1],0.5 ng/mL
same,stability in sodium metabisulfite,[2],unstable
same,IM vs SC vs EpiPen comparison,[3]; 0.6 mg,No apparent difference
same,"plasma Epinephrine levels, SC vs IM administration",[3]; 2 mg dose,higher levels of Epinephrine
same,plasma epinephrine exposure (AUC) after IM and SC administrations,"[3]; 0.6, 1 and 2 mg",Dose dependent effects
same,DIPI AUC 0-t,[3]; IM 0.6 mg,2.6 ng·min/mL
same,DIPI Cmax (mean),[3]; IM 0.6 mg,0.285 ng/mL
same,DIPI Tmax,[3]; IM 0.6 mg,5 min
same,DIPI AUC 0-t,[3]; IM 1 mg,15.63 ng·min/mL
same,DIPI Cmax (mean),[3]; IM 1 mg,0.632 ng/mL
same,DIPI Tmax,[3]; IM 1 mg,10 min
same,DIPI AUC 0-t,[3]; IM 2 mg,29.79 ng·min/mL
same,DIPI Cmax (mean),[3]; IM 2 mg,0.882 ng/mL
same,DIPI Tmax,[3]; IM 2 mg,5 min
same,dose equivalent to 0.3 mg epinephrine,[3]; IM and SC compared to Epipen,0.6 mg
same,onset of epinephrine response,[3]; IM and SC vs Epipen,very similar in both IM and SC administrations and comparable to Epipen
same,DIPI AUC 0-t,[3]; SC 0.6 mg,18.25 ng·min/mL
same,DIPI Cmax (mean),[3]; SC 0.6 mg,0.602 ng/mL
same,DIPI Tmax,[3]; SC 0.6 mg,17 min
same,DIPI AUC 0-t,[3]; SC 1 mg,80.14 ng·min/mL
same,DIPI Cmax (mean),[3]; SC 1 mg,2.34 ng/mL
same,DIPI Tmax,[3]; SC 1 mg,10 min
same,DIPI AUC 0-t,[3]; SC 2 mg,197.6 ng·min/mL
same,DIPI Cmax (mean),[3]; SC 2 mg,5.2 ng/mL
same,DIPI Tmax,[3]; SC 2 mg,17 min
same,conversion to Epinephrine after IM and SC administrations,[3]; all doses tested,Conversion of Dipivefrin to Epinephrine was seen
same,plasma Epinephrine levels after IM and SC administrations,[3]; all doses tested except 2 mg,Comparable plasma Epinephrine levels
same,dose response in AUC and Cmax for SC vs. IM,"[3]; epinephrine plasma levels, statistically significant only at 2 mg",~2.5 ×
